From ChEMBL document CHEMBL1250418, “Identification of novel inhibitors for a low molecular weight protein tyrosine phosphatase via virtual screening” (Bioorg Med Chem, 2010) come the findings set out here.

For experiment [1], the target named is Low molecular weight phosphotyrosine protein phosphatase, ACP1 (Homo sapiens) (UniProt P24666). Description: Effect on human cytoplasmic protein tyrosine phosphatase A assessed as change in enzyme activity at 100 uM at pH 7.
Experiment [2] shares this target. Put plainly: Effect on human cytoplasmic protein tyrosine phosphatase B assessed as change in enzyme activity at 100 uM at pH 5.
For experiment [3] the target is unchanged. Put plainly: Effect on human cytoplasmic protein tyrosine phosphatase A assessed as change in enzyme activity at 100 uM at pH 5.

For the molecule `O=C(O)C(O)Cc1ccccn1` (stereo not drawn), the Activity in experiment [1] was -46%; in experiment [2], -6%; in experiment [3], 1%.
